“Also recorded” adds a separate entry of the source.

For data set [1] the following is noted: preliminary studies.
The subject of data set [2] is primary HNSCC xenograft tumors (Luciferase-encoded HN31 cells). The data set is described as follows: Primary xenograft HNSCC tumor model, single treatment. In kind it is in vivo, mice. The settings on record: GNP-C225 0.8 μg g^−1 and laser pulses only. The procedure: Primary xenograft HNSCC tumors were induced s.c. by injecting 0.5 min of Luciferase-encoded HN31 cells and was grown to 3-5 mm. Tumors were quantified weekly via their volume (measured with a caliper) and Luciferase-induced bioluminescence (measured via small animal imaging system IVIS Lumina). One group received no treatment (6 animals), other three groups received the following single primary treatments: Quadrapeutic group (11 animals) received GNP-C225s (0.8 μg g^−1) and Doxil-C225 (1 mg kg^−1) via intra-venous concomitant injection. […] Generation of PNBs in tumors was monitored with ultrasound detector during the laser scan (FIG. 6a). […]
Tumor width and length were measured with digital calipers, and the tumor volume was calculated in mm^3 as: Volume=(width)^2×length/2 (See Rofstad, E. K. & Brustad, T. Tumour growth delay following single dose irradiation of human melanoma xenografts. Correlations with tumour growth parameters, vascular structure and cellular radiosensitivity. Br. J. Cancer. 51, 201-210 (1985)). Therapeutic efficacy was calculated as a ratio V1/V2, where V1—averaged tumor volume for animals in untreated group, V2—averaged tumor volume for animals in treated group. Animals were monitored for three weeks after the treatment and were euthanized on reaching a moribund condition.

Data set [3] relates to tumor and adjacent normal tissue. As to the kind of experiment: GNP clustering in vivo by TEM 24 h after systemic injection. The conditions noted are these: 0.8 μg g^−1 systemic. Details: species or system mouse. Here is the method:
GNP targeting in vivo. The evaluation of GNP clustering in vivo was done using TEM microscopy (Hitachi H-7500 Electron Microscope) (FIGS. 16a-c). Twenty-four hours after the systemic injection of GNP-C225 conjugates (0.8 μg g^−1), the tumor and adjusted normal tissues were extracted and prepared using the standard technique for TEM imaging.

On to “GNP-C225: 60 nm solid gold spheres (colloidal gold) conjugated with anti-EGFR antibody C225 (Erbitux)”, for which the “toxicity in vitro and in vivo” value in data set [1] is “little or no toxicity”. In addition, the “tumor growth, PNB group” value in data set [2] is “did not prevent the tumor growth”. Further, in data set [3], the “GNP clusters in tumor versus normal adjacent tissue (TEM)” value was “big GNP clusters were observed only in the tumor; also recorded: large GNP clusters only in tumors”.

The values are drawn from patent US20140120167A1, “MULTIFUNCTIONAL CHEMO- AND MECHANICAL THERAPEUTICS” (WILLIAM MARSH RICE UNIVERSITY, priority 2012, published 2014).
